PubChem BioAssay AID504706 (National Center for Advancing Translational Sciences (NCATS), 2011)
This is a selection; strong and weak results do not stand in their true shares. Results filed as inconclusive are left out. Some salts and complexes are drawn in separate pieces, as the source files them; their charges need not balance. The source made the active and inactive calls. The call rests on the fitted dose curve; in most records, active means well fitted activation curve with a large enough effect; inconclusive means small, poorly fitted or top-dose-only effect; inactive means no such curve, though single readings can be large or run the other way.

experiment: qHTS assay for re-activators of p53 using a Luc reporter; conditions: H1299 p53-A138V BP100-luciferase reporter, luminescence, 24 h; at 92.2 µM (top of the series); further: % of control where 0% means no effect; nearly all actives have a fitted effect of over 45% in size
Description: The p53 tumor suppressor plays a key role in suppression of tumorigenesis and in human carcinogenesis. It is frequently found inactivated in human cancers, mainly by point mutation. These point mutations are found in a wide variety of human cancers and a majority of them affect the DNA binding domain of the protein. The point mutations either alter native p53 conformation or abolish DNA contact. Additionally, cancer cells with p53 mutations are more resistant to chemo-radiation therapies. In order to find activators to reactivate this important protein, a cell-based screen for p53-dependent luciferase-reporter expression was developed. A p53-null H1299 lung cancer cell line was stably co-transfected with a temperature sensitive p53 mutant, p53-A138V, and a p53-responsive BP100-luciferase reporter. This cell model has previously been characterized in a gene chip profiling experiment for p53 activation. By lowering the culture temperature from 37 deg C (mutant p53 conformation) to 32 deg C (w.t. p53 conformation), a 30-60 fold increase in activation of luciferase activity is observed. At assay temperate, 37 deg C, basal reporter expression is very low and after the addition of detection reagent, a luminescent read-out is carried out. NIH Chemical Genomics Center [NCGC] NIH Molecular Libraries Probe Production Centers Network [MLPCN] MLPCN Grant: DA031088-01A1 Assay Provider (PI): Yi Sung, University of Michigan at Ann Arbor
5ul of 1000 cells per well are dispensed in all wells except column 4, into white solid-bottom TC-treated Kalypsys plates. The cells are kept in Opti-MEM and supplemented with 10% FBS and dispensed using a Multidrop (Thermo). Then using the Kalypsys pin-tool, 23nl of compounds are pinned. The compounds are starting concentration at 10mM, with 1:5 dilution, 4 points, and the control compound nocodazole is pinned in column 1 at 25mM, 1:3 dilution, in duplicate, 25mM nocodazole is pinned in column 2. Please note, all concentrations are working concentrations. 5ul of 1pM purified luciferase enzyme is dispensed using the Kalypsys dispenser in column 4. Plates are incubated for 24 hrs at 37 deg C, 5% CO2, and 95% humidity. Then 4ul of the detection reagent Amplite (ABD Bioquest) is added using the Kalypsys dispenser. Plates are incubated for 10 min at ambient room temperature and are then read on the ViewLux (Perkin Elmer) using a clear filter for a luminescent read-out.

SMILES | activity change, positive = activation
CCC(CO)(C(=O)OC1CN2CCC1CC2)c1ccccc1 (stereo not given) | inactive: 3.68%
COc1cc(OC)cc(C(=O)NCC2(N3CCOCC3)CCCCC2)c1 | inactive: 0.208%
COc1cccc(C(=O)N(c2cc(C)cc(C)c2)C2CCN(C(=O)OC(C)(C)C)CC2)c1 | inactive: -1.6%
CCCOc1ccc(C)cc1CN(CCCl)CCCl | inactive: -2.22%
CCOc1ncccc1C(=O)NCC1(N2CCOCC2)CCCCC1 | inactive: -6.81%
CN1CCC(Nc2ccc(F)c(Cl)c2)CC1 | inactive: -11.2%
CCCOc1ccc(C(=O)NCC2(N(C)C)CCCCC2)cc1 | inactive: -3.93%
CC(C)(C)OC(=O)N1CCC(Nc2ccccc2)CC1 | inactive: 0.342%
O=C(O)C1(Nc2ccccc2)CCN(Cc2ccccc2)CC1 | inactive: -7.67%
CCN1CCC(Nc2cccc(F)c2)CC1 | inactive: -0.663%
O=C(NCC1(N2CCCCC2)CCCCC1)c1ccco1 | inactive: 5.64%
CN(C)c1ccc(C(=O)NCC2(N3CCCCC3)CCCCC2)cc1 | inactive: 0.335%
COc1cc(OC)cc(C(=O)NCC2(N3CCCCC3)CCCCC2)c1 | inactive: 1.34%
Cc1ccc(C(=O)NCC2(N3CCCCC3)CCCCC2)o1 | inactive: -1.33%
Fc1ccccc1NC1CCN(Cc2ccccc2)CC1 | inactive: 0.93%
c1ccc(CN2CCC(Nc3ccccc3)CC2)cc1 | inactive: -1.69%
CN(C)C1(CNC(=O)c2cccc(C#N)c2)CCCCC1 | inactive: 0.27%
CC(C)(C)OC(=O)N1CCC(N(C(=O)c2ccccc2)c2ccc(Cl)cc2)CC1 | inactive: -8.71%
N#Cc1ccc(C(=O)NCC2(N3CCCCC3)CCCCC2)cc1 | inactive: 4.85%
CCOC(=O)C(CC)C1=NC(C)(C)Cc2ccccc21.O=[N+]([O-])c1cc([N+](=O)[O-])c(O)c([N+](=O)[O-])c1 (stereo not given) | inactive: -0.698%
N/C(=N\O)c1c(N)no[n+]1[O-] | inactive: 0.067%
CCOC(=O)N1CCC(Nc2ccc(C)cc2)CC1 | inactive: 18%
CCc1cc(C(=O)NCC2(N3CCCCC3)CCCCC2)sc1C | inactive: 2.18%
O=C(OC1CN2CCC1CC2)C1c2ccccc2C=Cc2ccccc21 (stereo not given) | inactive: -9.85%

SMILES | activity change, positive = activation
O=C(O)c1cccc(Nc2c([N+](=O)[O-])cc([N+](=O)[O-])cc2[N+](=O)[O-])c1 | inactive: 4.25%
O=C(NCC1(N2CCOCC2)CCCCC1)c1cc(Br)ccc1Cl | inactive: -5.81%
COc1cc(C(=O)NCC2(N3CCOCC3)CCCCC2)cc(OC)c1C | inactive: -0.185%
COc1ccc(C(=O)NCC2(N3CCOCC3)CCCCC2)cc1OC | inactive: 3.65%
COc1ccc2c(c1O)-c1c(O)c(OC)cc3c1[C@H](C2)[N+](C)(C)CC3.O=[N+]([O-])c1cc([N+](=O)[O-])c([O-])c([N+](=O)[O-])c1[O-] | inactive: 8.7%
O=C(NCC1(N2CCCCC2)CCCCC1)c1cncc(Br)c1 | inactive: -7.37%
O=C(OC1CN2CCC1CC2)c1ccc([N+](=O)[O-])cc1 (stereo not given) | inactive: -3.44%
CCCOc1ccc(C(=O)NCC2(N(C)C)CCCCC2)cc1OC | inactive: -2.57%
COc1ccc(CN(CCCl)CCCl)cc1Cl | inactive: 1.67%
O=[N+]([O-])c1cc([N+](=O)[O-])c(OC2CCCCC2O)c([N+](=O)[O-])c1 (stereo not given) | inactive: -0.99%
CN(C)c1cccc(C(=O)NCC2(N3CCCCC3)CCCCC2)c1 | inactive: 3.9%
CC(C)c1ccc(NC2CCN(C(=O)OC(C)(C)C)CC2)cc1 | inactive: 19.3%
COc1cc(OC)c(C(=O)NCC2(N(C)C)CCCCC2)cc1OC | inactive: -0.881%
O=C(NCC1(N2CCOCC2)CCCCC1)c1cc(F)c(F)cc1Cl | inactive: -2.62%
O=C(NCC1(N2CCCCC2)CCCCC1)c1cccc(C(F)(F)F)c1 | inactive: 5.88%
O=[N+]([O-])c1cc([N+](=O)[O-])c(NCC2CCS(=O)(=O)C2)c([N+](=O)[O-])c1 (stereo not given) | inactive: -5.68%
CN1CCN(CCOC(=O)C(O)(c2ccccc2)c2ccccc2)CC1 | inactive: 1.26%
CC(C)c1ccc(C(=O)NCC2(N3CCOCC3)CCCCC2)cc1 | inactive: 2.56%
COc1ccc(NC2CCN(C(=O)OC(C)(C)C)CC2)cc1 | inactive: 1.37%
COc1cc(C(=O)NCC2(N3CCCCC3)CCCCC2)ccc1OC(F)F | inactive: -2.03%
O=C(NCC1(N2CCOCC2)CCCCC1)c1cc(=O)[nH]c2ccccc12 | inactive: 1.41%
O=C(NCC1(N2CCCCC2)CCCCC1)c1ccc(OC(F)F)cc1 | inactive: 1.2%
CSc1ccc(C(=O)NCC2(N3CCOCC3)CCCCC2)cc1 | inactive: -2.08%
O=C(NCC1(N2CCCCC2)CCCCC1)c1cccc([N+](=O)[O-])c1 | inactive: 4.48%

SMILES | activity change, positive = activation
N#CC1(Nc2ccccc2)CCN(CCc2ccccc2)CC1 | inactive: -4.53%
COc1cc(C(=O)NCC2(N(C)C)CCCCC2)ccc1OC(F)F | inactive: -0.101%
Cc1ccc(OCC(C)C)c(CN(CCCl)CCCl)c1 | inactive: 5.2%
CCOc1ccc(C)cc1CN(CCCl)CCCl | inactive: 1.25%
CCCCOc1ccc(C(=O)NCC2(N3CCOCC3)CCCCC2)cc1 | inactive: -7.08%
O=C(NCC1(N2CCCCC2)CCCCC1)c1ccc(F)cc1 | inactive: -3.92%
COc1ccc(NC2CCN(CCc3ccccc3)CC2)c(OC)c1 | inactive: -15.2%
CCOC(=O)N1CCC(Nc2ccc(F)cc2)CC1 | inactive: 8.29%
O=C(NCC1(N2CCOCC2)CCCCC1)c1cc2ccccc2o1 | inactive: 0.535%
O=C(NCC1(N2CCCCC2)CCCCC1)c1ccc(Cl)nc1 | inactive: -0.309%
Cc1cc(C)cc(N(C(=O)c2ccccc2)C2CCN(C(=O)OC(C)(C)C)CC2)c1 | inactive: 0.377%
CCOC(=O)N1CCC(Nc2ccc(OC)cc2)CC1 | inactive: -0.973%
N#CC1(Nc2ccccc2)CCN(Cc2ccccc2)CC1 | inactive: 5.39%
O=C(NCC1(N2CCCCC2)CCCCC1)c1ccc(Cl)s1 | inactive: -6.33%
O=C(OC1CN2CCC1CC2)C1c2ccccc2Oc2ccccc21 (stereo not given) | inactive: -13.1%
COc1ccc(Cl)cc1C(=O)NCC1(N2CCOCC2)CCCCC1 | inactive: -3.53%
O=C(NCC1(N2CCCCC2)CCCCC1)c1ccc(=O)[nH]c1 | inactive: -3.01%
O=C(NCC1(N2CCCCC2)CCCCC1)c1cccs1 | inactive: 2.7%
COc1ccc(C(=O)NCC2(N3CCCCC3)CCCCC2)cc1 | inactive: 0.449%
CC(C)(C)OC(=O)N1CCC(N(C(=O)c2ccccc2)c2ccc(F)cc2)CC1 | inactive: 2.38%
COc1ccc(C(=O)NCC2(N3CCCCC3)CCCCC2)c(OC)c1OC | inactive: -9.91%
CSc1ccccc1C(=O)NCC1(N2CCCCC2)CCCCC1 | inactive: -7.29%
